Laboratory results as given in patent US20160129122A1, “FATTY ACID ANTIVIRAL CONJUGATES AND THEIR USES” (Catabasis Pharmaceuticals, Inc., priority 2011, published 2016).

System: NF-κB
Assay: NF-κB luciferase reporter assay in LPS-stimulated RAW 264.7 macrophages
Assay type: cell-based
Conditions: read-out: NF-kB inhibitory activity IC50 μM; RAW 264.7 cells with 3×NFkB response element luciferase reporter, 2 h pretreatment, 200 ng/ml LPS for 3 h

Substance	IC50 [µM]
((2R,5S)-5-(4-amino-2-oxopyrimidin-1(2H)-yl)-1,3-oxathiolan-2-yl)methyl methyl (2-((4Z,7Z,10Z,13Z,16Z,19Z)-docosa-4,7,10,13,16,19-hexaenamido)ethyl)phosphoramidate	50 to 200
((2R,5S)-5-(4-amino-2-oxopyrimidin-1(2H)-yl)-1,3-oxathiolan-2-yl)methyl phenyl (2-((5Z,8Z,11Z,14Z,17Z)-icosa-5,8,11,14,17-pentaenamido)ethyl)phosphoramidate	50 to 200
